Test results reported in EP1881000A1, “Conjugates of 2-fluoro-2-deoxy-glucose and their uses as anti cancer agents” (INSTITUT NATIONAL DE LA SANTE ET DE LA RECHERCHE MEDICALE …, priority 2006, dated 2008).

Assay: Determination of the Maximum Tolerated Dose (MTD), acute toxicity after a single IP injection
Assay type: in vivo, male OF1 mice
Design: key: per mouse 0 = absent, 1 = present per sign; summed over group
Conditions: group sum
Procedure: Drugs were dissolved in a mixture of dimethylacetamide (Sigma) and oleic macrogolglycerides (Labrafil® M1944Cs, Gattefossé) (10:90%, vol/vol).
Initially, the Maximum Tolerated Dose (MTD) after intraperitoneal (IP) administration was determinated.
For MTD determination, study was conducted on male OF1 mice weighing about 30 g, 6-weeks old (Charles River, France). Groups of five to six mice received a single IP injection of each drug at variable doses according to the compound (see Tables 2, 3 and 4).
Individual dose were based on the body weight of each mouse. All the mice received a constant injection volume of 250 µL per 25 g of body weight. A group of seven control mice received the vehicle.
After IP injection, mice were weighed and observed every two days over a 2 week-period to evaluate general clinical state. For each animal, a clinical state score (CSS) was calculated based on the absence (value 0) or presence (value 1) of diarrhoea, lethargy, rough coat and closed eyes. CSS was then calculated per group by summing individual scores. Loss of weight and mortality were also recorded.

In the case of O=C(O)CCCc1ccc(N(CCCl)CCCl)cc1 [chlorambucil, reference compound], the “Clinical State Score (CSS) diarrhoea” value (single IP 0.0175 mmol/kg) is reported as 1, the “Clinical State Score (CSS) lethargy” value (single IP 0.0175 mmol/kg) is reported as 0 and the “Clinical State Score (CSS) total” value (single IP 0.0175 mmol/kg) is reported as 1. The “Clinical State Score (CSS) lethargy” value (single IP 0.035 mmol/kg) was 0, the “Clinical State Score (CSS) rough coat” value (single IP 0.035 mmol/kg) was 0 and the “Clinical State Score (CSS) total” value (single IP 0.035 mmol/kg) was 2. The “Clinical State Score (CSS) closed eyes” value (single IP 0.05 mmol/kg) was 0, the “Clinical State Score (CSS) diarrhoea” value (single IP 0.05 mmol/kg) was 2 and the “Clinical State Score (CSS) lethargy” value (single IP 0.05 mmol/kg) was 0. The “Clinical State Score (CSS) total” value (single IP 0.05 mmol/kg) was 2, the “Clinical State Score (CSS) diarrhoea” value (single IP 0.07 mmol/kg) was 2 and the “Clinical State Score (CSS) rough coat” value (single IP 0.07 mmol/kg) was 5. For the same compound, the “Clinical State Score (CSS) total” value (single IP 0.07 mmol/kg) was 7, the “Clinical State Score (CSS) diarrhoea” value (single IP 0.09 mmol/kg) was 4 and the “Clinical State Score (CSS) rough coat” value (single IP 0.09 mmol/kg) was 4. The “Clinical State Score (CSS) total” value (single IP 0.09 mmol/kg) was 8.
